# Measured values reported in patent publication US9206198B2, “Inhibitors of the renal outer medullary potassium channel” (Merck Sharp & Dohme Corp., priority 2012, dated 2015).
# Chains of the proteins cited; added tags and fusions are not shown.
# UniProt P48048, whole entry: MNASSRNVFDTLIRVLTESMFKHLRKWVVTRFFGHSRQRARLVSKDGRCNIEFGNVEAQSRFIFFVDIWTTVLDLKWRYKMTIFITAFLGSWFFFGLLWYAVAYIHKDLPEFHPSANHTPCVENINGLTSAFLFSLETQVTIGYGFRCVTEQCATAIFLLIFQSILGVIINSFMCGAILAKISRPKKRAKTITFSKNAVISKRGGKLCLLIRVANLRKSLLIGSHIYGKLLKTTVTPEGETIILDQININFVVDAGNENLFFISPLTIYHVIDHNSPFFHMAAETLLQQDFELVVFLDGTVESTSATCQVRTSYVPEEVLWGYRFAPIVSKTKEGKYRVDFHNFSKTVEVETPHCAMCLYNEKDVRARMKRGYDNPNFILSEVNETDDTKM
# Experiments:
# [1] = target: hROMK (hKir1.1) (Homo sapiens (Human), UniProt P48048); experiment: Thallium Flux Assay (ROMK channel functional thallium flux assay, FLIPR-Tetra); type: cell-based; details: read-out: Thallium Flux IC50; HEK293 cells stably expressing hROMK
# [2] = target: Kir1.1 (ROMK1) (Homo sapiens (Human), UniProt P48048); experiment: Electrophysiology Assay (whole cell voltage clamp, IonWorks Quattro); details: read-out: Electrophysiology IC50; Chinese hamster ovary cells stably expressing Kir1.1; block during voltage step to 0 mV
SMILES,IC50 [1] [µM],IC50 [2] [µM]
CCC1=C(N2CCC3(CCN(C[C@H](O)c4ccc5c(c4C)COC5=O)CC3)C2=O)COC1=O,0.08,0.02
"Cc1c([C@@H](O)CN2CCC3(CC2)CCN(C2=CC(=O)OC2C)C3=O)ccc2c1COC2=O (single isomer, unassigned) [12]",0.14,0.03
"COC1CN(C2=C(C)C(=O)OC2)C(=O)C12CCN(C[C@H](O)c1ccc3c(c1C)COC3=O)CC2 (single isomer, unassigned) [34]",0.09,–
"CC1=C(N2CCC3(CCN(C[C@H](O)c4ccc5c(c4C)COC5=O)CC3)C2=O)C(C)OC1=O (single isomer, unassigned) [13]",0.49,0.06
CC1=C(N2CC[C@@]3(C[C@H]4CC[C@@H](C3)N4C[C@H](O)c3ccc4c(c3C)COC4=O)C2=O)COC1=O,0.04,–
"COC1CN(C2=C(C)C(=O)OC2)C(=O)C12CCN(C[C@H](O)c1ccc3c(c1C)COC3=O)CC2 (single isomer, unassigned) [35]",0.07,–
"CC1=C(N2CCC3(CCN(C[C@H](O)c4ccc5c(c4C)COC5=O)CC3)C2=O)C(C)OC1=O (single isomer, unassigned) [14]",0.38,0.1
CC1=C(N2CC[C@]3(C[C@H]4CC[C@@H](C3)N4C[C@H](O)c3ccc4c(c3C)COC4=O)C2=O)COC1=O,0.01,–
Cc1c([C@@H](O)CN2CCC3(CC2)CCN(C2=CC(=O)OC2)C3)ccc2c1COC2=O,0.2,0.03
Cc1c([C@@H](O)CN2CCC3(CC2)CC(=O)N(C2=CC(=O)OC2)C3)ccc2c1COC2=O,0.17,0.05
CC1=C(N2CC3(CCN(C[C@H](O)c4ccc5c(c4C)COC5=O)CC3)CC2=O)COC1=O,0.11,–
"Cc1c([C@@H](O)CN2CCC3(CC2)CCN(C2=CC(=O)OC2C)C3=O)ccc2c1COC2=O (single isomer, unassigned) [11]",0.12,0.02
Cc1c([C@@H](O)CN2[C@@H]3CC[C@H]2C[C@]2(CCN(C4=CC(=O)OC4)C2=O)C3)ccc2c1COC2=O,0.02,0.004
